Assay results from US20260062422A1 (Halda Therapeutics OpCo, Inc., priority 2022, published 2026).

Chains of the proteins cited; added tags and fusions are not shown.
UniProt P10275, whole entry T878A: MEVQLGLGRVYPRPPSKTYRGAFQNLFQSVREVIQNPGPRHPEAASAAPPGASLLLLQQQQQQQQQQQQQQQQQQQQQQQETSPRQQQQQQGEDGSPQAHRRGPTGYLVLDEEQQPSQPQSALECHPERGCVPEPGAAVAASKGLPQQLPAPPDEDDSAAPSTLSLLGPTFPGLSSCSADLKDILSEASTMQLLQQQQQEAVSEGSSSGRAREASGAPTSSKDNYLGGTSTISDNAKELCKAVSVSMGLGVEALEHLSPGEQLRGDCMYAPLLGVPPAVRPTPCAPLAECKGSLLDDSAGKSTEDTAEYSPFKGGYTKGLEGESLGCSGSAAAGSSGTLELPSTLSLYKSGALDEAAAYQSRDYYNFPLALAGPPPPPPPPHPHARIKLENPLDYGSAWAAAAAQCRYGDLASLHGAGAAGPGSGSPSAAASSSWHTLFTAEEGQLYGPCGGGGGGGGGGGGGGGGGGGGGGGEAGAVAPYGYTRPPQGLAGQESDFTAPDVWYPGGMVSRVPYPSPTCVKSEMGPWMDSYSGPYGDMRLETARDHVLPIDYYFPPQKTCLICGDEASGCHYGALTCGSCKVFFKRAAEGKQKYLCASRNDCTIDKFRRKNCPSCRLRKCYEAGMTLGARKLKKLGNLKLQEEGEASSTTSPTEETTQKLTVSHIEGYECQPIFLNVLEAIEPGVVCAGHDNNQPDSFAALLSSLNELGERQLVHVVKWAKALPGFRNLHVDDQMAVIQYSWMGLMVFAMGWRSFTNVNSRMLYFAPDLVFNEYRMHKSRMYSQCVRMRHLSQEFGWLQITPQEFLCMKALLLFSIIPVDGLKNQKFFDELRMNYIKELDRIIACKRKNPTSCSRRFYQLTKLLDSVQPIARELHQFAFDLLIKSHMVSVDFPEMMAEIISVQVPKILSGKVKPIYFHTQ

How the values were obtained:
VCaP cells = experiment: Cellular growth inhibition assay for VCaP cells, CellTiter-Glo; settings: 72 hours treatment, CellTiter-Glo 2.0
Protocol: VCaP cells were purchased from American Type Cell Culture (ATCC Cat #CRL2876) and then seeded on poly-D-lysine coated, black clear-bottom 384-well plates at 5000/well in 25 μL Dulbecco's Modified Eagle Medium (DMEM) supplemented with 10% w/w Fetal bovine serum (FBS) and 1% w/w Pen-Strep. Pen-Strep is a commercially available mixture of penicillin G and streptomycin, which is used in mammalian cell culture media to prevent bacterial contamination. Dulbecco's Modified Eagle Medium (DMEM) supplemented with 10% w/w fetal bovine serum (FBS) and 1% w/w Pen-Strep is herein referred to as Treatment Medium. Following seeding of cells in the plates, the plates were spun at 300×g for 30 seconds, then equilibrated to room temperature for 30 minutes, and then deposited in a humidified tissue culture incubator maintained at 37° C. with 5% CO2.
At 24 hours after seeding of the cells, dilutions of test compound were prepared in DMSO and dissolved in Treatment Medium, to achieve a final DMSO concentration of 0.5% w/w, thereby providing the Test Compound Solution. A 25 μL aliquot of the Test Compound Solution was added to cells in the well plates. An equal volume of a solution containing DMSO and Treatment Medium was used as a negative control. Following treatment of cells with Test Compound Solution or said equal volume of a solution containing DMSO and Treatment Medium, the plates were spun at 300×g for 30 seconds, and then left in an incubator for 72 hours.
At the end of the treatment duration, cell viability was quantified with CellTiter-Glo 2.0 reagent (Promega Cat #G9243). For this purpose, plates were equilibrated to room temperature for 30 minutes, and then 25 μL of CellTiter-Glo 2.0 reagent was added to cells in the plate wells. […] Following incubation, the plates were spun at 3000×g for 30 seconds, then sealed with an optical adhesive cover, and luminescence readings were measured with an EnVision Plate Reader.
Data was normalized using zero luminescence for baseline. […]

BRD4-BD1 = BRD4-BD1 (Homo sapiens, UniProt O60885); experiment: bromoKdELECT assay for binding affinity to BRD4-BD1; settings: Table 6
Protocol: Compounds were tested using a bromoKdELECT assay. T7 phage strains displaying bromodomains were grown in parallel in 24-well blocks in an E. coli host derived from the BL21 strain. E. coli were grown to log-phase and infected with T7 phage from a frozen stock (multiplicity of infection=0.4) and incubated with shaking at 32° C. until lysis (90-150 minutes). The lysates were centrifuged (5,000×g) and filtered (0.2 μm) to remove cell debris. Streptavidin-coated magnetic beads were treated with biotinylated small molecule or acetylated peptide ligands for 30 minutes at room temperature to generate affinity resins for bromodomain assays. The liganded beads were blocked with excess biotin and washed with blocking buffer (SeaBlock (Pierce), 1% BSA, 0.05% Tween 20, 1 mM DTT) to remove unbound ligand and to reduce nonspecific phage binding. Binding reactions were assembled by combining bromodomains, liganded affinity beads, and test compounds in 1× binding buffer (17% SeaBlock, 0.33×PBS, 0.04% Tween 20, 0.02% BSA, 0.004% Sodium azide, 7.4 mM DTT). Test compounds were prepared as 1000× stocks in 100% DMSO. Kds were determined using an 11-point 3-fold compound dilution series with one DMSO control point. All compounds for Kd measurements are distributed by acoustic transfer (non-contact dispensing) in 100% DMSO. The compounds were then diluted directly into the assays such that the final concentration of DMSO was 0.09%. All reactions performed in polypropylene 384-well plates. Each was a final volume of 0.02 ml. The assay plates were incubated at room temperature with shaking for 1 hour and the affinity beads were washed with wash buffer (1×PBS, 0.05% Tween 20). The beads were then resuspended in elution buffer (1×PBS, 0.05% Tween […] non-biotinylated affinity ligand) and incubated at room temperature with shaking for 30 minutes. The bromodomain concentration in the eluates was measured by qPCR.

androgen receptor = androgen receptor (Homo sapiens, UniProt P10275); experiment: Assay for binding affinity to androgen receptor ([3H]methyltrienolone radioligand, cell cytosol); settings: 1 nM [3H]methyltrienolone, 24 hours at 4° C., Table 5
Protocol: Fractions of cell cytosol ([…] cell/point) were incubated for 24 hours at 4° C. with 1 nM [^3H]methyltrienolone in the absence or presence of the test compound in a buffer containing 25 mM Hepes-Tris (pH 7.4), 1 mM EDTA, 10 mM Na2MoO4, 2 mM DTT, 5 μM triamcinolone acetonide, and 10% glycerol. Nonspecific binding was determined in the presence of 1 μM testosterone. Following incubation, the samples were filtered rapidly under vacuum through glass fiber filters (GF/B, Packard) presoaked with 0.3% PEI and rinsed several times with ice-cold 50 mM Tris-HCl using a 96-sample cell harvester (Unifilter, Packard). The filters were dried then counted for radioactivity in a scintillation counter (Topcount, Packard) using a scintillation cocktail (Microscint 0, Packard). The results are expressed as a percent inhibition of the control radioligand specific binding. The standard reference compound is testosterone, which is tested in each experiment at several concentrations to obtain a competition curve from which its IC50 is calculated.

Row | Compound | GI50 (VCaP cells) [nM] | pKd (BRD4-BD1) | pKd (androgen receptor)
1 | CCNC(=O)C[C@@H]1N=C(c2ccc(CN3CCN(c4ncc(C(=O)N[C@H]5C(C)(C)[C@H](Oc6ccc(C#N)c(Cl)c6)C5(C)C)cn4)CC3)cc2)c2c(sc(C)c2C)-n2c(C)nnc21 | 500 to 1500 | 6.30 to 7.30 | –
2 | CCNC(=O)C[C@@H]1N=C(c2ccc(CC3CCN(c4ncc(C(=O)N[C@H]5C(C)(C)[C@H](Oc6ccc(C#N)c(Cl)c6)C5(C)C)cn4)CC3)cc2)c2c(sc(C)c2C)-n2c(C)nnc21 | 1500 to 3000 | < 5.60 | > 7.30
3 | CCNC(=O)C[C@@H]1N=C(c2ccc(N3CC4(C3)CN(c3ncc(C(=O)N[C@H]5C(C)(C)[C@H](Oc6ccc(C#N)c(Cl)c6)C5(C)C)cn3)C4)cc2)c2c(sc(C)c2C)-n2c(C)nnc21 | < 500 | 6.30 to 7.30 | > 7.30

pKd: −log10 of the molar value.
